This assay deals with circulating immunoglobulins (IgG1, IgG2a, IgG2b, IgG3, IgA, IgM, kappa, lambda). The assay is described as follows: Wild type mouse study, circulating immunoglobulin profile by ELISA. To be noted: FIG. 24; for Circulating IgA levels compared to control: clozapine 5 and 10 mg/kg, haloperidol 1 mg/kg. In general terms: In an ELISA, binding on a coated surface is turned into a signal by an enzyme label.

Take `CN1CCN(C2=Nc3cc(Cl)ccc3Nc3ccccc32)CC1` [Clozapine, clozapine]: the “Other circulating immunoglobulin isotype classes” value is “No other isotype classes were affected” and the “Circulating IgA levels compared to control” value was “reduction in circulating IgA levels”. Take `O=C(CCCN1CCC(O)(c2ccc(Cl)cc2)CC1)c1ccc(F)cc1` [Haloperidol, haloperidol]: the “Circulating IgA levels compared to control” value is recorded as “not observed”.

Values taken from patent US20210236513A1, “NOVEL USES” (ZARODEX THERAPEUTICS LIMITED, priority 2018, published 2021).
